What was measured:
[1] = system: PARylation; assay: PolyADP-ribosylation (PARylation) immunoblot; assay type: cell-based, human; settings: WT THP1, Rec IFNβ 50 ng/ml 6 hours, then H2O2
Description: Cells were collected by centrifugation, washed once with ice-cold PBS, lysed in RIPA buffer and analyzed by western blot to detect PARylation using pADPr Antibody (Santa Cruz sc-56198).

[2] = system: DDR signaling; assay: DDR signaling immunoblotting in THP1 cells; settings: WT THP1, recombinant human interferon β, 6 hours

B1: recIFN-β: human recombinant interferon β, a primary cytokine induced by cGAMP (protein, UniProt P01574 22-187, looked up)
Interferon beta: MSYNLLGFLQRSSNFQCQKLLWQLNGRLEYCLKDRMNFDIPEEIKQLQQFQKEDAALTIYEMLQNIFAIFRQDSSSTGWNETIVENLLANVYHQINHLKTVLEEKLEKEDFTRGKLMSSLHLKRYYGRILHYLKAKEYSHCAWTIVRVEILRNFYFINRLTGYLRN
- protein PARylation [1]: did not inhibit protein PARylation
- DDR marker γH2AX [2]: but not the DDR marker γH2AX
- STAT2 activation (pSTAT2) [2]: activation of the downstream signaling molecule STAT2
